Experimental data as given in patent US7759499B2, “Compounds as inhibitors of hepatitis C virus NS3 serine protease” (Schering Corporation, priority 2004, dated 2010).

By UniProt entry, the sequences of proteins in these tests, tags left out. Residues count along the entry.
UniProt P27958, 1027-1657: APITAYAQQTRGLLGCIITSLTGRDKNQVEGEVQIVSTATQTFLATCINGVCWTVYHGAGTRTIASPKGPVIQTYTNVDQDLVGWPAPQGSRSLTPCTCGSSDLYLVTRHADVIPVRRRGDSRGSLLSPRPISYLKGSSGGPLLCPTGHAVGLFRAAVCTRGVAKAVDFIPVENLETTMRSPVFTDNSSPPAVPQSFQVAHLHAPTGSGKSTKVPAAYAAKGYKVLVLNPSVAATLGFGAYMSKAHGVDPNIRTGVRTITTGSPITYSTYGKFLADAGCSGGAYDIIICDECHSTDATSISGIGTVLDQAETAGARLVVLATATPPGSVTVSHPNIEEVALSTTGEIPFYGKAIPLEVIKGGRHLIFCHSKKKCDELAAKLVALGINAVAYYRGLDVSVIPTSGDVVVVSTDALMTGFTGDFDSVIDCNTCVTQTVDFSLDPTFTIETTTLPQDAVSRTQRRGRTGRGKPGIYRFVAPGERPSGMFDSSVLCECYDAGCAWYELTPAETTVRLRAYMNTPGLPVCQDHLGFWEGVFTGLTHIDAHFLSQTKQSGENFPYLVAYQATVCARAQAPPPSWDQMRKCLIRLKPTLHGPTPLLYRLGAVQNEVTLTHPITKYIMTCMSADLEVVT
UniProt P27958, 1658-1711: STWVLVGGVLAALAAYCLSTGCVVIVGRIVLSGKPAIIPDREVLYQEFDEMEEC

What follows are compounds tested against Recombinant heterodimeric HCV NS3/NS4A protease (strain 1a) (Hepatitis C virus genotype 1a, UniProt P27958) (assay: Spectrophotometric assay for HCV protease inhibitory activity). Details: Table 2, range.
Assay type: biochemical

CCCC(NC(=O)[C@@H]1[C@@H]2[C@H](CN1C(=O)[C@@H](NC(=O)N[C@H](CN(C)S(=O)(=O)c1cccs1)C(C)(C)C)C(C)(C)C)C2(C)C)C(=O)C(N)=O (stereo partly shown) [Compound 11258] and CCCCC(NC(=O)[C@@H]1[C@@H]2[C@H](CN1C(=O)[C@@H](NC(=O)N[C@H](CN(C)S(=O)(=O)c1cccs1)C(C)(C)C)C(C)(C)C)C2(C)C)C(=O)C(=O)NC (stereo partly shown) [Compound 11259] cannot be ordered by Ki: no more than 75 nM for the first, no more than 75 nM for the second.

CCCCC(NC(=O)[C@@H]1[C@@H]2[C@H](CN1C(=O)[C@@H](NC(=O)N[C@H](CN(C)S(=O)(=O)c1cccs1)C(C)(C)C)C(C)(C)C)C2(C)C)C(=O)C(=O)NCCC (stereo partly shown) [Compound 11260] and CCCCC(NC(=O)[C@@H]1[C@@H]2[C@H](CN1C(=O)[C@@H](NC(=O)N[C@H](CN(C)S(=O)(=O)c1cccs1)C(C)(C)C)C(C)(C)C)C2(C)C)C(=O)C(=O)NCCOC (stereo partly shown) [Compound 11262] cannot be ordered by Ki: no more than 75 nM for the first, 75 to 250 nM for the second.

C=CCNC(=O)C(=O)C(CC1CC1)NC(=O)[C@@H]1[C@@H]2[C@H](CN1C(=O)[C@@H](NC(=O)N[C@H](CN(C)S(C)(=O)=O)C(C)(C)C)C1Cc3ccccc3C1)C2(C)C (stereo partly shown) [Compound 11261] and C=CCNC(=O)C(=O)C(CC1CC1)NC(=O)[C@@H]1[C@@H]2[C@H](CN1C(=O)[C@@H](NC(=O)N[C@H](CN(C)S(=O)(=O)CC)C(C)(C)C)C1Cc3ccccc3C1)C2(C)C (stereo partly shown) [Compound 11288] cannot be ordered by Ki: no more than 75 nM for the first, no more than 75 nM for the second.

C=CCNC(=O)C(=O)C(CCC)NC(=O)[C@@H]1[C@@H]2[C@H](CN1C(=O)[C@@H](NC(=O)N[C@H](CN(C)S(C)(=O)=O)C(C)(C)C)C1Cc3ccccc3C1)C2(C)C (stereo partly shown) [Compound 11263] and C=CCNC(=O)C(=O)C(CCCC)NC(=O)[C@@H]1[C@@H]2[C@H](CN1C(=O)[C@@H](NC(=O)N[C@H](CN(C)S(C)(=O)=O)C(C)(C)C)C1Cc3ccccc3C1)C2(C)C (stereo partly shown) [Compound 11266] cannot be ordered by Ki: no more than 75 nM for the first, no more than 75 nM for the second.

CCCCC(NC(=O)[C@@H]1[C@@H]2[C@H](CN1C(=O)[C@@H](NC(=O)N[C@H](CN(C)S(C)(=O)=O)C(C)(C)C)C(C)(C)C)C2(C)C)C(=O)C(=O)NCCOC (stereo partly shown) [Compound 11264] and CCCCC(NC(=O)[C@@H]1[C@@H]2[C@H](CN1C(=O)[C@@H](NC(=O)N[C@H](CN(C)S(C)(=O)=O)C(C)(C)C)C1Cc3ccccc3C1)C2(C)C)C(=O)C(=O)NCCC (stereo partly shown) [Compound 11271] cannot be ordered by Ki: no more than 75 nM for the first, no more than 75 nM for the second.

CC(C)CC(C)(CN(C)S(=O)(=O)c1ccccc1)NC(=O)N[C@H](C(=O)N1C[C@H]2[C@@H]([C@H]1C(=O)NC(CC1CC1)C(=O)C(N)=O)C2(C)C)C(C)(C)C (stereo partly shown) [Compound 11265] and CN(C[C@@H](NC(=O)N[C@H](C(=O)N1C[C@H]2[C@@H]([C@H]1C(=O)NC(CC1CC1)C(=O)C(N)=O)C2(C)C)C1Cc2ccccc2C1)C(C)(C)C)S(=O)(=O)C(C)(C)C (stereo partly shown) [Compound 11269] cannot be ordered by Ki: no more than 75 nM for the first, no more than 75 nM for the second.

CN(C[C@@H](NC(=O)N[C@H](C(=O)N1C[C@H]2[C@@H]([C@H]1C(=O)NC(CC1CCC1)C(=O)C(N)=O)C2(C)C)C1Cc2ccccc2C1)C(C)(C)C)S(=O)(=O)C(C)(C)C (stereo partly shown) [Compound 11268] and CCS(=O)(=O)N(C)C[C@@H](NC(=O)N[C@H](C(=O)N1C[C@H]2[C@@H]([C@H]1C(=O)NC(CC1CCC1)C(=O)C(N)=O)C2(C)C)C1Cc2ccccc2C1)C(C)(C)C (stereo partly shown) [Compound 11289] cannot be ordered by Ki: no more than 75 nM for the first, no more than 75 nM for the second.

CCCCC(NC(=O)[C@@H]1[C@@H]2[C@H](CN1C(=O)[C@@H](NC(=O)N[C@H](CN(C)S(=O)(=O)C(C)(C)C)C(C)(C)C)C1Cc3ccccc3C1)C2(C)C)C(=O)C(N)=O (stereo partly shown) [Compound 11270] and CCCCC(NC(=O)[C@@H]1[C@@H]2[C@H](CN1C(=O)[C@@H](NC(=O)N[C@H](CN(C)S(C)(=O)=O)C(C)(C)C)C1Cc3ccccc3C1)C2(C)C)C(=O)C(=O)NCC(C)C (stereo partly shown) [Compound 11280] cannot be ordered by Ki: no more than 75 nM for the first, no more than 75 nM for the second.

C#CCNC(=O)C(=O)C(CCCC)NC(=O)[C@@H]1[C@@H]2[C@H](CN1C(=O)[C@@H](NC(=O)N[C@H](CN(C)S(C)(=O)=O)C(C)(C)C)C1Cc3ccccc3C1)C2(C)C (stereo partly shown) [Compound 11272] and CCCCNC(=O)C(=O)C(CCCC)NC(=O)[C@@H]1[C@@H]2[C@H](CN1C(=O)[C@@H](NC(=O)N[C@H](CN(C)S(C)(=O)=O)C(C)(C)C)C1Cc3ccccc3C1)C2(C)C (stereo partly shown) [Compound 11279] cannot be ordered by Ki: no more than 75 nM for the first, no more than 75 nM for the second.

C=CCNC(=O)C(=O)C(CC1CC1)NC(=O)[C@@H]1[C@@H]2[C@H](CN1C(=O)[C@@H](NC(=O)N[C@H](CN(C)S(=O)(=O)C(C)(C)C)C(C)(C)C)C1Cc3ccccc3C1)C2(C)C (stereo partly shown) [Compound 11273] and C#CCCC(NC(=O)[C@@H]1[C@@H]2[C@H](CN1C(=O)[C@@H](NC(=O)N[C@H](CN(C)S(=O)(=O)C(C)(C)C)C(C)(C)C)C1Cc3ccccc3C1)C2(C)C)C(=O)C(=O)NCC=C (stereo partly shown) [Compound 11274] cannot be ordered by Ki: 75 to 250 nM for the first, no more than 75 nM for the second.

C=CCNC(=O)C(=O)C(CC1CC1)NC(=O)[C@@H]1[C@@H]2[C@H](CN1C(=O)[C@@H](NC(=O)N[C@H](CN(C)S(=O)(=O)c1ccccn1)C(C)(C)C)C1CCCCC1)C2(C)C (stereo partly shown) [Compound 11275] and C=CCNC(=O)C(=O)C(CC1CCC1)NC(=O)[C@@H]1[C@@H]2[C@H](CN1C(=O)[C@@H](NC(=O)N[C@H](CN(C)S(=O)(=O)c1ccccn1)C(C)(C)C)C1CCCCC1)C2(C)C (stereo partly shown) [Compound 11295] cannot be ordered by Ki: no more than 75 nM for the first, no more than 75 nM for the second.

C=CCNC(=O)C(=O)C(CCC)NC(=O)[C@@H]1[C@@H]2[C@H](CN1C(=O)[C@@H](NC(=O)N[C@H](CN(C)S(=O)(=O)c1ccccn1)C(C)(C)C)C1CCCCC1)C2(C)C (stereo partly shown) [Compound 11276] and C=CCNC(=O)C(=O)C(CCCC)NC(=O)[C@@H]1[C@@H]2[C@H](CN1C(=O)[C@@H](NC(=O)N[C@H](CN(C)S(=O)(=O)c1ccccn1)C(C)(C)C)C1CCCCC1)C2(C)C (stereo partly shown) [Compound 11277] cannot be ordered by Ki: no more than 75 nM for the first, no more than 75 nM for the second.

C#CCCC(NC(=O)[C@@H]1[C@@H]2[C@H](CN1C(=O)[C@@H](NC(=O)N[C@H](CN(C)S(=O)(=O)c1ccccn1)C(C)(C)C)C1CCCCC1)C2(C)C)C(=O)C(=O)NCC=C (stereo partly shown) [Compound 11278] and C=CCNC(=O)C(=O)C(CCC(F)(F)F)NC(=O)[C@@H]1[C@@H]2[C@H](CN1C(=O)[C@@H](NC(=O)N[C@H](CN(C)S(=O)(=O)c1ccccn1)C(C)(C)C)C1CCCCC1)C2(C)C (stereo partly shown) [Compound 11296] cannot be ordered by Ki: no more than 75 nM for the first, no more than 75 nM for the second.

CCCCC(NC(=O)[C@@H]1[C@@H]2[C@H](CN1C(=O)[C@@H](NC(=O)N[C@H](CN(C)S(C)(=O)=O)C(C)(C)C)C1Cc3ccccc3C1)C2(C)C)C(=O)C(=O)NCC1CC1 (stereo partly shown) [Compound 11281] and C=CCNC(=O)C(=O)C(CCCC)NC(=O)[C@@H]1[C@@H]2[C@H](CN1C(=O)[C@@H](NC(=O)N[C@H](CN(C)S(=O)(=O)CC)C(C)(C)C)C1Cc3ccccc3C1)C2(C)C (stereo partly shown) [Compound 11285] cannot be ordered by Ki: no more than 75 nM for the first, no more than 75 nM for the second.

First: CN([C@@H]1CCCC[C@@H]1NC(=O)N[C@H](C(=O)N1C[C@H]2[C@@H]([C@H]1C(=O)NC(CC1CCC1)C(=O)C(N)=O)C2(C)C)C(C)(C)C)S(C)(=O)=O (stereo partly shown) [Compound 11282]
Second: C=CCNC(=O)C(=O)C(CC1CC1)NC(=O)[C@@H]1[C@@H]2[C@H](CN1C(=O)[C@@H](NC(=O)N[C@H]1CCCC[C@H]1N(C)S(C)(=O)=O)C(C)(C)C)C2(C)C (stereo partly shown) [Compound 11283]
The Ki of the first is lower: 75 to 250 nM for the first, greater than 250 nM for the second.

C#CCCC(NC(=O)[C@@H]1[C@@H]2[C@H](CN1C(=O)[C@@H](NC(=O)N[C@H]1CCCC[C@H]1N(C)S(C)(=O)=O)C(C)(C)C)C2(C)C)C(=O)C(=O)NCC=C (stereo partly shown) [Compound 11284] and C#CCCC(NC(=O)[C@@H]1[C@@H]2[C@H](CN1C(=O)[C@@H](NC(=O)N[C@H](CN(C)S(=O)(=O)c1cccs1)C(C)(C)C)C1CCCCC1)C2(C)C)C(=O)C(=O)NCC=C (stereo partly shown) [Compound 11294] cannot be ordered by Ki: 75 to 250 nM for the first, no more than 75 nM for the second.

C=CCNC(=O)C(=O)C(CCC)NC(=O)[C@@H]1[C@@H]2[C@H](CN1C(=O)[C@@H](NC(=O)N[C@H](CN(C)S(=O)(=O)CC)C(C)(C)C)C1Cc3ccccc3C1)C2(C)C (stereo partly shown) [Compound 11286] and C#CCCC(NC(=O)[C@@H]1[C@@H]2[C@H](CN1C(=O)[C@@H](NC(=O)N[C@H](CN(C)S(=O)(=O)CC)C(C)(C)C)C1Cc3ccccc3C1)C2(C)C)C(=O)C(=O)NCC=C (stereo partly shown) [Compound 11297] cannot be ordered by Ki: no more than 75 nM for the first, no more than 75 nM for the second.

C=CCNC(=O)C(=O)C(CCC(F)(F)F)NC(=O)[C@@H]1[C@@H]2[C@H](CN1C(=O)[C@@H](NC(=O)N[C@H](CN(C)S(=O)(=O)CC)C(C)(C)C)C1Cc3ccccc3C1)C2(C)C (stereo partly shown) [Compound 11287] and CCS(=O)(=O)N(C)C[C@@H](NC(=O)N[C@H](C(=O)N1C[C@H]2[C@@H]([C@H]1C(=O)NC(CC1CC1)C(=O)C(N)=O)C2(C)C)C1Cc2ccccc2C1)C(C)(C)C (stereo partly shown) [Compound 11290] cannot be ordered by Ki: no more than 75 nM for the first, no more than 75 nM for the second.

CCCCC(NC(=O)[C@@H]1[C@@H]2[C@H](CN1C(=O)[C@@H](NC(=O)N[C@H](CN(C)S(=O)(=O)c1cccs1)C(C)(C)C)C1Cc3ccccc3C1)C2(C)C)C(=O)C(=O)NCC (stereo partly shown) [Compound 11291] and C=CCNC(=O)C(=O)C(CCCC)NC(=O)[C@@H]1[C@@H]2[C@H](CN1C(=O)[C@@H](NC(=O)N[C@H](CN(C)S(=O)(=O)c1cccs1)C(C)(C)C)C1CCCCC1)C2(C)C (stereo partly shown) [Compound 11293] cannot be ordered by Ki: no more than 75 nM for the first, no more than 75 nM for the second.

First: C=CCNC(=O)C(=O)C(CC1CCC1)NC(=O)[C@@H]1[C@@H]2[C@H](CN1C(=O)[C@@H](NC(=O)N[C@H](CN(C)S(=O)(=O)c1cccs1)C(C)(C)C)C1CCCCC1)C2(C)C (stereo partly shown) [Compound 11292]
Second: C=CCNC(=O)C(=O)C(CC1CCC1)NC(=O)[C@@H]1[C@@H]2[C@H](CN1C(=O)[C@@H](NC(=O)NC[C@@H](N(C)S(=O)(=O)c1ccccc1)C(C)(C)C)C1CCCCC1)C2(C)C (stereo partly shown) [Compound 11300]
The Ki of the first is lower: no more than 75 nM for the first, greater than 250 nM for the second.

C#CCCC(NC(=O)[C@@H]1[C@@H]2[C@H](CN1C(=O)[C@@H](NC(=O)N[C@H](CN(C)S(=O)(=O)c1cccs1)C(C)(C)C)C1(C)CCCCC1)C2(C)C)C(=O)C(=O)NCC=C (stereo partly shown) [Compound 11298] and C#CCNC(=O)C(=O)C(CCCC)NC(=O)[C@@H]1[C@@H]2[C@H](CN1C(=O)[C@@H](NC(=O)N[C@H](CN(C)S(C)(=O)=O)C(C)(C)C)C1(C)CCCCC1)C2(C)C (stereo partly shown) [Compound 11299] cannot be ordered by Ki: no more than 75 nM for the first, no more than 75 nM for the second.

Compound C=CCNC(=O)C(=O)C(CCCC)NC(=O)[C@@H]1[C@@H]2[C@H](CN1C(=O)[C@@H](NC(=O)NC[C@@H](N(C)S(=O)(=O)c1ccccc1)C(C)(C)C)C1CCCCC1)C2(C)C (stereo partly shown) [Compound 11311] has a Ki greater than 250 nM.
